# Test results reported in article PMC4805779, “The Ascaris suum nicotinic receptor, ACR-16, as a drug target: Four novel negative allosteric modulators from virtual screening” (International Journal for Parasitology: Drugs and Drug …, 2016).
# System: C. elegans strain N2
# Assay: C. elegans L4 larvae motility (thrashing) in M9 buffer
# Type: in vivo, Caenorhabditis elegans
compound,measurement,value
"Cl.N#Cc1ccc2c(c1)CCN(CC[C@H]1CC[C@H](NC(=O)c3ccnc4ccccc34)CC1)C2.O [SB-277011-A, SB-277011-A hydrochloride hydrate]",Duration of decreased motility,about 10 min
